The assay concerns the target T1, Human CB1 receptor (Homo sapiens, UniProt P21554).
T1 construct: purchased Receptor Biology
Description: hCB1 GTPγS binding. The format is biochemical. To be noted: hCB1 membranes, GTPg35S binding. Here is the method: Human CB1 receptor from Receptor Biology (hCB1) or human CB2 receptor membranes (BioSignal) are thawed at 37° C., passed 3 times through a 25-gauge blunt-end needle and diluted in the GTPγS binding buffer (50 mM Hepes, 20 mM NaOH, 100 mM NaCl, 1 mM EDTA, 5 mM MgCl2, pH 7.4, 0.1% BSA). The EC50 and Emax of the compounds of the invention are evaluated from 10-point dose-response curves done in 300 μl with the appropriate amount of membrane protein and 100000-130000 dpm of GTPg^35S per well (0.11-0.14 nM). The basal and maximal stimulated binding is determined in absence and presence of 1 μM (hCB2) or 10 μM (hCB1) Win 55,212-2 respectively. The membranes are pre-incubated for 5 minutes with 56.25 μM (hCB2) or 112.5 μM (hCB1) GDP prior to distribution in plates (15 μM (hCB2) or 30 μM (hCB1) GDP final). The plates are vortexed and incubated for 60 minutes at room temperature, filtered on Unifilters GF/B (presoaked in water) with the Tomtec or Packard harvester using 3 ml of wash buffer (50 mM Tris, 5 mM MgCl2, 50 mM NaCl, pH 7.0). The filters are dried for 1 hour at 55° C. The radioactivity (cpm) is counted in a TopCount (Packard) after adding 65 μl/well of MS-20 scintillation liquid. […]
In general terms: Binding of GTPγS marks nucleotide exchange on a G protein.

The chains behind the UniProt entries cited, without tags or fusion partners.
UniProt P21554, whole entry: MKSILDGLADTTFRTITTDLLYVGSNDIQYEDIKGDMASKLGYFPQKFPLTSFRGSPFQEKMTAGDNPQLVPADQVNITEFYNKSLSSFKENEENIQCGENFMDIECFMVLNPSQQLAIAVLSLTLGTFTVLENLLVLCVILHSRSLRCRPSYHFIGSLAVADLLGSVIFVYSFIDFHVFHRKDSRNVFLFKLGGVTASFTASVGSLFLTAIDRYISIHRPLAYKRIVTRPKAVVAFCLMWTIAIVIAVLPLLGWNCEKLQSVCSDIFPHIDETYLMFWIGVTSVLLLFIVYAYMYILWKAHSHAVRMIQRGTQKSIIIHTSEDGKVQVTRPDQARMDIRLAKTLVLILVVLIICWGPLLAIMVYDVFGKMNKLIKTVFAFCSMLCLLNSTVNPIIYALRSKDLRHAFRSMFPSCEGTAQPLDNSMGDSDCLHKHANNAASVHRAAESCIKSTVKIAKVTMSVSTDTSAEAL

One may read the EC50 as the concentration needed to bring the measured effect to its halfway point. A lower EC50 goes with an effect from little substance. Consider `O=C(NCC1CCCCC1)c1c(O)cccc1NC(=O)c1cccc2ccccc12` [Example 49, N-[2-[[(Cyclohexylmethyl)amino]carbonyl]-3-hydroxyphenyl]-1-naphthalenecarboxamide], for which a half-maximal effect (EC50) was put at 0.968 µM.

For the origin of these results see patent US20090018116A1, “Therapeutic Compounds” (ASTRAZENECA AB, priority 2004, published 2009).
